This note sets out measurements from US20250188171A1, “COMBINATION THERAPY INCLUDING ANTIBODIES THAT BIND EGFR AND CMET” (MERUS N.V., priority 2022, published 2025).

The test system of assay [1] is N87 (EGFR-high, cMET-low). The assay can be described thus: ADCC assay (Promega ADCC Bioassay kit), N87 target cells. The class given is cell-based. The following applies: 6 hours, luciferase. Here is the method:
(§1) The ADCC activity of the 24 cMetxEGFR bispecifics was tested to the tumor cell lines N87 (EGFR-high, cMET-low) and MKN-45 (EGFR-low, cMET-amplified). The ADCC assay was performed using the Promega ADCC Bioassay kit in 384-well plate format. Antibodies were tested in duplicate at 9 different concentrations in semi-log serial dilutions ranging from 10 µg/ml to 1 ng/ml.
(§2) Antibodies or assay medium control (no IgG) were incubated for 6 hours of induction at 37° C. with ADCC effector cells, and target cells (N87 or MKN-45). Luciferase activity was quantified using Bio-Glo luciferase reagent.

The test system of assay [2] is MKN-45 (EGFR-low, cMET-amplified). The assay can be described thus: ADCC assay (Promega ADCC Bioassay kit), MKN-45 target cells. The class given is cell-based. The following applies: 6 hours, luciferase. As for the experimental part: as §1, §2

Turning to “cetuximab: reference antibody for the EGFR Fab panel; monoclonal antibody that inhibits EGFR”, the ADCC activity result in assay [1] and in assay [2] was “dose-dependent ADCC activity” in each case.
